Measured values as given in US20040121946A9, “Inducing cellular immune responses to her2/neu using peptide and nucleic acid compositions” (priority 2002, published 2004).

Tested on: tumor targets that endogenously express HER2/neu (colon adenocarcinoma cell lines SW403 and HT-29)
Experiment: Primary in vitro CTL induction, recognition of wild-type peptide and endogenous tumor targets (51Cr release / in situ IFNγ ELISA)
Type: cell-based, human
Details: positive/tested

SMILES: CC[C@H](C)[C@H](NC(=O)CNC(=O)[C@H](Cc1ccccc1)NC(=O)[C@@H](NC(=O)[C@@H](N)C(C)C)C(C)C)C(=O)N[C@@H](CC(C)C)C(=O)N[C@H](C(=O)N[C@@H](CCCCN)C(=O)N[C@@H](CCCNC(=N)N)C(=O)O)[C@@H](C)CC
- CTL Tumor (recognition of tumor targets): 0/1
- CTL Wild-type (recognition of wild-type peptide): 1/3
